Data from ChEMBL document CHEMBL5058646 (2022).

Experiments:
[1] = target: T1, Telomere zinc finger-associated protein (Homo sapiens) (UniProt P10074); conditions: SUD4
T1 sequence (whole entry): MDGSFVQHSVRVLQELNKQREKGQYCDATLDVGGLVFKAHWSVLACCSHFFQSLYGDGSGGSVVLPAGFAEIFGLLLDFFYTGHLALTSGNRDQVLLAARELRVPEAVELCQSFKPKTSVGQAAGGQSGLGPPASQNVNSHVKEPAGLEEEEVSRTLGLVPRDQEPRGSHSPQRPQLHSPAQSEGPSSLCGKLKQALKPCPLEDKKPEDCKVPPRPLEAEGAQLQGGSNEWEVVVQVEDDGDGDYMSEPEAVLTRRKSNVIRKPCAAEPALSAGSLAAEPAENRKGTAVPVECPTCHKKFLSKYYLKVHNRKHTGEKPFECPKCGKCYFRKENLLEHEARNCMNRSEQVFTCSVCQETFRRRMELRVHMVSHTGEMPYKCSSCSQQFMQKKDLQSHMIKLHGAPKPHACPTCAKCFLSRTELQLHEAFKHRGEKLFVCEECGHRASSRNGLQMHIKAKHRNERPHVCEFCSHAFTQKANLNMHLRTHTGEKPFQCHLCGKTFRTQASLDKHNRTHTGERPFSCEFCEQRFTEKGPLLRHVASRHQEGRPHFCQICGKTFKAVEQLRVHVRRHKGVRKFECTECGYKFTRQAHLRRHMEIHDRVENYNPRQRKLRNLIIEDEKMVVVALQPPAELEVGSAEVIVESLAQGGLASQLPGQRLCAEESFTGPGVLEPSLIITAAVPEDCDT

[2] = target: T2, Zinc finger and BTB domain-containing protein 40 (Homo sapiens) (UniProt Q9NUA8); conditions: SUD4
T2 sequence (whole entry): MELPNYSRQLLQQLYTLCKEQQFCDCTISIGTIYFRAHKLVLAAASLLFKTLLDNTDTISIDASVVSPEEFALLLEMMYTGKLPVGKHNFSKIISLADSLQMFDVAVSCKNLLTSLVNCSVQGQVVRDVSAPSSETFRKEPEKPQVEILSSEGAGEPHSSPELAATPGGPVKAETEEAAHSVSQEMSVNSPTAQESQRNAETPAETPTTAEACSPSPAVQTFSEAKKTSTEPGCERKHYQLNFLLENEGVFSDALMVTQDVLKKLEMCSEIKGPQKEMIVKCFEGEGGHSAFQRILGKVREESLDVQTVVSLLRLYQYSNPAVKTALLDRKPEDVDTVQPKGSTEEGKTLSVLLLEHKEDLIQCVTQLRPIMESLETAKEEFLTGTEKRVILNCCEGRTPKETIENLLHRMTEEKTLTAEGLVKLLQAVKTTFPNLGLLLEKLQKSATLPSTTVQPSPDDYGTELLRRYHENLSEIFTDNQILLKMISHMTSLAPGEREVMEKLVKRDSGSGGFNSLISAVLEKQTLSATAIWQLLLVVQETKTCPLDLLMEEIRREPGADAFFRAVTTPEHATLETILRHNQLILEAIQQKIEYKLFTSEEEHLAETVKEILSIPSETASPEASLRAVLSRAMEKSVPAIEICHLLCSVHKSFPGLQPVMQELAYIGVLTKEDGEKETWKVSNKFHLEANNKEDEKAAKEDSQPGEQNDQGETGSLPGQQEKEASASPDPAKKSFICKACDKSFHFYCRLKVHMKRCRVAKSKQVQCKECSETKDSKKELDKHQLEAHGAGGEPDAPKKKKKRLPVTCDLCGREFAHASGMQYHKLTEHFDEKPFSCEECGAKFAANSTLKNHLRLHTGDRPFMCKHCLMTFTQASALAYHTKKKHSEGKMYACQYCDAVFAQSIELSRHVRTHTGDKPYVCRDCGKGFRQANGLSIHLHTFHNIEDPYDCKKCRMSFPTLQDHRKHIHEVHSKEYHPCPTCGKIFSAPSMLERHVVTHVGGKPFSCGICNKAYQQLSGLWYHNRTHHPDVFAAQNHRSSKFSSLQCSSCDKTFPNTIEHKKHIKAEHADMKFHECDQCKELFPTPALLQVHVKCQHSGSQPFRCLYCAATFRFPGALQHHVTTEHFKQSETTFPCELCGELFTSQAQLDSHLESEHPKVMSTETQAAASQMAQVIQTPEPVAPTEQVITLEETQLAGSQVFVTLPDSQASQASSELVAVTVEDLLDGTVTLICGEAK

[3] = target: T3, Zinc finger protein 131 (Homo sapiens) (UniProt P52739); conditions: OCI-Ly1
T3 sequence (whole entry): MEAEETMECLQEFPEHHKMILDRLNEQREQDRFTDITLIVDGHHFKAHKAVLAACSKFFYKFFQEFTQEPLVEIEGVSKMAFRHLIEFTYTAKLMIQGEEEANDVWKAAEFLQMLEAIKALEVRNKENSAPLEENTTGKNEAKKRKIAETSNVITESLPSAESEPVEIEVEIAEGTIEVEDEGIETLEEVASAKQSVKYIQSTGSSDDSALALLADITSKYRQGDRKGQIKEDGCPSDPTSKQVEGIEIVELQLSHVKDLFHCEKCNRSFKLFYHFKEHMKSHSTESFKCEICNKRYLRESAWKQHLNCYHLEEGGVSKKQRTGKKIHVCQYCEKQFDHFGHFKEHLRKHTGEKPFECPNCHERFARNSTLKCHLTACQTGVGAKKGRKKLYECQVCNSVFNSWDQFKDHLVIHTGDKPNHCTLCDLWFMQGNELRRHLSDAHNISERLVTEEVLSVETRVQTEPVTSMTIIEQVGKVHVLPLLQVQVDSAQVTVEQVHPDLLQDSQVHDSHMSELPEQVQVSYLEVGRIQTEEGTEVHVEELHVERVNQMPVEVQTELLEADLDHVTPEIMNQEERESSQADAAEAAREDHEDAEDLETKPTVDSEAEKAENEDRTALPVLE

Compound C[C@@H]1CN(c2ncc(Cl)c(Nc3ccc4c(c3)n(CCC(C)(C)O)c(=O)n4C)n2)C[C@H](C)C1(F)F has a Normalized abundances for DMSO [1] of 1060, a Normalized abundances for compound [1] of 1080 and a Normalized abundances for DMSO [2] of 1290. For the same compound, the Normalized abundances for compound [2] was 1290, the Normalized abundances for DMSO [3] was 34.9 and the Normalized abundances for compound [3] was 21.3.
